Laboratory results published in patent publication US5196515A, “Thiolactone bifunctional chelating agents for diagnostic and therapeutic products” (The Johns Hopkins University, priority 1991, dated 1993).

How the values were obtained:
[1] = Biodistribution of radiolabeled HSA in mice; assay type: in vivo, male CD-1 mice; conditions: for blood retention / clearance of label in blood: FIG. 2A, in words
From the text: In vivo evaluation of labeled HSA is simplified because the level of radioactivity in the blood is a measure of stability and viability. Any loss of the Tc label or denaturation of the labeled protein will be observed as low blood retention and abnormal accumulation of radioactivity in organs such as stomach, kidney, or liver (Pettit et al., 1978). Biodistribution of the Tc-99m labeled HSA products were compared with I-125 labeled HSA in male CD-1 mice. The behavior of the Tc-99m-nDADT:HSA (n=1-6) were similar in these in vivo studies and are typified by Tc-99m-3DADT:HSA in FIGS. 2A and 2B. […] The small differences in clearance between the Tc-99m-nDADT:HSA and I-125-HSA at the longer time points may be due to differences in the handling of the respective labels once significant metabolism of the protein has occurred.
The stability of label and the viability of the ^99m Tc-labeled HSA products in vivo were assessed by studying the biodistribution of [^99m Tc]-labeled HSA and [^99m Tc]nDADT:HSA (N=1, 2, 3, and 6) as compared to [^125 I]-labeled HSA in mice. The temporal distribution of [^99m Tc]- and [^125 I]-radioactivity in blood stomach, liver, kidneys, and intestines of male CD-1 mice were determined as follows: HPLC purified [^125 I]-labeled HSA, [^99m Tc]-labeled HSA and [^99m Tc]nDADT:HSA (n=1, 2, 3, and 6) were approximately diluted to 10 μCi/ml. Aliquots of the diluted samples (0.2 ml, 2 μCi) were injected through the tail vein. At 5, 15, 30, 60 and 180 min postinjection, groups of six mice were killed by cervical dislocation and the organs of interest were removed by dissection and weighed. Tissue radioactivity was determined using an automated scintillation well counter with a 100 to 180 KeV window. The per cent injected does per gram of wet tissue per organ was calculated by comparison to standard dilutions of the injected dose and corrected for decay.

[2] = In vitro stability of Tc-99m labeled HSA, HPLC purified products incubated at room temperature; assay type: physicochemical; conditions: 3.5 hours incubation
Procedure: As a measure of stability of the labeled HSA molecules, HPLC purified products were incubated at room temperature. For HSA labeled without the use of the BCA, hydrolyzed reduced Tc-99m and [TcO4 ]^- were formed (FIG. 1). These decomposition products account for 66% of the label at 3.5 hours incubation.

[3] = Blood retention of radiolabeled HSA in rabbits; assay type: in vivo, Female New Zealand White rabbits; conditions: rabbit, up to six hours postinjection, FIG. 3
Procedure: Three rabbits were injected through the left ear vein with a mixture of HPLC purified [^125 I]-labeled HSA and [^99m Tc]3DADT-HSA (50 μCi each). At 5, 15, 30, 60, 180 and 360 min postinjection, 0.5 ml blood samples were drawn from the contralateral ear. The technetium-99m radioactivity in the samples was measured using an automated scintillation well counter with a 100 to 180 KeV window as described above. After a three day, 12 half-lives, decay period for the [^99m Tc]-radioactivity, the [^125 I]-radioactivity in the samples was measured using the automated scintillation well counter with a 20 to 80 KeV window.
Male CD-1 mice (average weight 25 g) were purchased from the Charles River Laboratories. Female New Zealand White rabbits (average weight 20 kg) were purchased from Bunnyville.

Row | Substance | blood retention / clearance of label in blood [1] | total stomach accumulation ([1]; FIG. 2B) [% ID/organ] | stomach uptake ([1]; by 30 min, FIG. 2B) | decomposition products (share of the label) [2] [%] | blood retention, Tc-99m-3DADT:HSA compared to I-125-HSA [3]
1 | I-125-HSA: I-125 labeled HSA [Example I-125-HSA] | early retention of the label in the blood was similar | < 4.5 |  |  | 
2 | Tc-99m-HSA (unmodified): HSA labeled with Tc-99m without the use of the BCA | lower initial retention and faster clearance of the label in blood |  | up to 20 % of the injected dose | 66 | 
3 | Tc-99m-3DADT:HSA: Tc-99m labeled HSA with an average of 3 DADT chelating groups |  |  |  |  | practically no difference
